Results published in ChEMBL document CHEMBL2439948, “Discovery of DF-461, a Potent Squalene Synthase Inhibitor” (ACS Med Chem Lett, 2013).

What was measured:
[1] = system: Rattus norvegicus; assay: Ratio of TAK475 ED50 to compound ED50 for inhibition of cholesterol synthesis in po dosed Wistar rat administered as single dose prior to [14C]mevalonolactone injection measured after 7 hrs by liquid scintillation counting; format: functional
[2] = system: Rattus norvegicus; assay: Drug uptake in rats liver assessed per gram of tissue at 3 mg/kg, po administered as single dose measured at 1 hr
[3] = system: Rattus norvegicus; assay: Partition co-efficient, Kp in rats liver assessed per gram of tissue at 3 mg/kg, po administered as single dose measured at 1 hr

SMILES: COc1cccc([C@H]2O[C@H](CC(=O)O)c3nnc(C(F)(F)F)n3-c3ccc(Cl)cc32)c1Cl
- Ratio ED50 [1]: 30
- concentration at 1 h [2]: 2890 ng/g
- Kp at 1 h [3]: 80
